{"sequences": {"note": "Amino acid sequences for entries named in this document (tags omitted).", "UniProt Q8BHY3, whole entry": "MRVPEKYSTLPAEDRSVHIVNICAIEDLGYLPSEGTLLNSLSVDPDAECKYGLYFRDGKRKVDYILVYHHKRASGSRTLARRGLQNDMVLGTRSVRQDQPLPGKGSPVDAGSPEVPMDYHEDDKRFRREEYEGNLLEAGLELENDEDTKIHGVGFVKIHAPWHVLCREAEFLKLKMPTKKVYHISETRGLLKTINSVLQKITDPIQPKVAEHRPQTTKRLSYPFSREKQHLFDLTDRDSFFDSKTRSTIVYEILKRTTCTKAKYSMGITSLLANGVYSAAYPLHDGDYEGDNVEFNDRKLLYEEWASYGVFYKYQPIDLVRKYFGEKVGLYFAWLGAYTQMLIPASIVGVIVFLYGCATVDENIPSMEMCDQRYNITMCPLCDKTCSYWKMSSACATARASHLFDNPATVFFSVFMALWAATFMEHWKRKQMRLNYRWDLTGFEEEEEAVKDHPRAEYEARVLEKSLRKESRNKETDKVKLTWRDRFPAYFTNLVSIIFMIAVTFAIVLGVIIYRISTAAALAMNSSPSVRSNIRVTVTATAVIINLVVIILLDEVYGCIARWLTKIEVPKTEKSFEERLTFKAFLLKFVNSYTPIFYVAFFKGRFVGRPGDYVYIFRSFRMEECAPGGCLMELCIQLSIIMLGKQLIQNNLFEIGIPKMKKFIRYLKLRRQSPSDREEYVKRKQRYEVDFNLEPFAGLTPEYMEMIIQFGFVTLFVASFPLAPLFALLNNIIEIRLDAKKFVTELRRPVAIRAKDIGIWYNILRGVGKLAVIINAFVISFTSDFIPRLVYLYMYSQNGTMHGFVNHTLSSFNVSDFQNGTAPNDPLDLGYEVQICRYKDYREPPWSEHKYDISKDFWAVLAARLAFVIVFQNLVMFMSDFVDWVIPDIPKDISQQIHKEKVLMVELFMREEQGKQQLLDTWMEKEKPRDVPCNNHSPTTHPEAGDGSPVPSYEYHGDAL"}, "source": "PubChem BioAssay AID623877", "about": "(Johns Hopkins Ion Channel Center, 2012)", "note": "This is a selection; strong and weak results do not stand in their true shares. Some salts or complexes appear as unconnected parts, following the source record. Calls of active or inactive are those of the source.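 How the source made its calls: active means fluorescence-ratio B-score plate-corrected deviation score at least 3 library SD below zero, with starting fluorescence score within 5 deviations; inactive means the rest.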"}
{"molecular_target": "Anoctamin-1 (Mus musculus) (UniProt Q8BHY3)", "assay": "TMEM16A chloride channel activators or potentiators, primary screen, cell-based, HTS (AID 623877)", "conditions": "HEK293 TMEM16A/YFP-H148Q/I152L, iodide quench fluorescence, at 10 µM"}
{"smiles": "CN(C)CCOC(=O)C(O)(c1ccccc1)C1CCCCC1", "note": "(configuration not stated)", "outcome": "inactive"}
{"smiles": "O=P(Nc1nc2ccccc2s1)(c1ccccc1)c1ccccc1", "outcome": "inactive"}
{"smiles": "C[C@H]1OP(=O)(Oc2ccccc2)[C@H](O)[C@H](O)[C@H]1N=[N+]=[N-]", "note": "(some centres not stated)", "outcome": "inactive"}
{"smiles": "COc1ccc(NP(C)(=O)Oc2ccccc2OC)cc1", "note": "(configuration not stated)", "outcome": "inactive"}
{"smiles": "COc1ccc(OP(C)(=O)Nc2cccc(Br)c2)cc1", "note": "(configuration not stated)", "outcome": "inactive"}
{"smiles": "COc1ccc(N)c([N+](=O)[O-])c1[N+](=O)[O-]", "outcome": "inactive"}
{"smiles": "O=P(Nc1ccccn1)(c1ccc(Br)cc1)c1ccc(Br)cc1", "outcome": "inactive"}
{"smiles": "CN(C)C1(CNC(=O)c2ccc(Cl)c(S(N)(=O)=O)c2)CCCCC1", "outcome": "inactive"}
{"smiles": "Cc1c(C(c2ccc3c(c2)OCO3)c2c(C)n(C)n(-c3ccccc3)c2=O)c(=O)n(-c2ccccc2)n1C.O=[N+]([O-])c1cc([N+](=O)[O-])c(O)c([N+](=O)[O-])c1", "outcome": "inactive"}
{"smiles": "Nc1ccc([As](=O)(O)c2ccc([N+](=O)[O-])cc2)cc1", "outcome": "inactive"}
{"smiles": "C(Cc1nn[nH]n1)Cc1nn[nH]n1", "outcome": "inactive"}
{"smiles": "O=C(OC1CN2CCC1CC2)c1cccc(Cl)c1", "note": "(configuration not stated)", "outcome": "inactive"}
{"smiles": "O=[N+]([O-])c1ccc(O)c(/C=N/Nc2ccc([N+](=O)[O-])cc2[N+](=O)[O-])c1", "outcome": "inactive"}
{"smiles": "O=[N+]([O-])c1ncn(CCn2cnc([N+](=O)[O-])n2)n1", "outcome": "inactive"}
{"smiles": "O=[N+]([O-])c1ccc(OP2(=O)COCCO2)cc1", "note": "(configuration not stated)", "outcome": "inactive"}
{"smiles": "CC(=O)NC(SC(=S)N(C)C)C(Cl)(Cl)Cl", "note": "(configuration not stated)", "outcome": "inactive"}
{"smiles": "O=[As](O)(c1ccccc1)c1ccc(O)cc1", "outcome": "inactive"}
{"smiles": "O=[N+]([O-])c1cc([N+](=O)[O-])c(NCC2CCS(=O)(=O)C2)c([N+](=O)[O-])c1", "note": "(configuration not stated)", "outcome": "inactive"}
{"smiles": "Cc1cc(-c2cccc3ccccc23)c(C)cn1.O=[N+]([O-])c1cc([N+](=O)[O-])c(O)c([N+](=O)[O-])c1", "outcome": "inactive"}
{"smiles": "CCOP(C)(=S)SCC(=O)NC(C)(CC)C(=O)O", "note": "(configuration not stated)", "outcome": "inactive"}
{"smiles": "c1nnnn1CCn1cnnn1", "outcome": "inactive"}
{"smiles": "CP(=O)(Nc1ccc(SC(F)(F)F)cc1)Oc1ccc(F)cc1", "note": "(configuration not stated)", "outcome": "inactive"}
{"smiles": "CC(C)C(=O)NC(Sc1ccccc1)C(Cl)(Cl)Cl", "note": "(configuration not stated)", "outcome": "inactive"}
{"smiles": "O=P(Nc1nccs1)(c1ccccc1)c1ccccc1", "outcome": "inactive"}
{"smiles": "Cc1ccccc1NP(C)(=O)Nc1ccccc1C", "outcome": "inactive"}
{"smiles": "CP(=O)(Nc1ccc2c(c1)OCCO2)Oc1ccccc1", "note": "(configuration not stated)", "outcome": "inactive"}
{"smiles": "CCc1cc(O)c([N+](=O)[O-])c(C)c1[N+](=O)[O-]", "outcome": "inactive"}
{"smiles": "CP(=O)(Nc1ccccc1F)Oc1ccccc1", "note": "(configuration not stated)", "outcome": "inactive"}
{"smiles": "CC(C)(C)C(=O)NC(Sc1ccccc1)C(Cl)(Cl)Cl", "note": "(configuration not stated)", "outcome": "inactive"}
{"smiles": "CC(C)c1ccc(OP(C)(=O)Nc2ccc(SC(F)(F)F)cc2)cc1", "note": "(configuration not stated)", "outcome": "inactive"}
{"smiles": "O=P1(Nc2nc3ccc(Cl)cc3s2)COc2ccccc2O1", "note": "(configuration not stated)", "outcome": "inactive"}
{"smiles": "CCOc1ccc(C2=NCC(CBr)S2)cc1", "note": "(configuration not stated)", "outcome": "inactive"}
{"smiles": "COc1ccc2c(c1O)-c1c(O)c(OC)cc3c1[C@H](C2)[N+](C)(C)CC3.O=[N+]([O-])c1cc([N+](=O)[O-])c([O-])c([N+](=O)[O-])c1[O-]", "outcome": "inactive"}
{"smiles": "CC(=O)Nc1ccc([As](=O)(O)O)c(O)c1", "outcome": "inactive"}
{"smiles": "CC(=O)Nc1ccc(Oc2c([N+](=O)[O-])cc([N+](=O)[O-])cc2[N+](=O)[O-])cc1", "outcome": "inactive"}
{"smiles": "N#C/C(=C\\c1ccc(N(CCBr)CCBr)cc1)C(N)=O", "outcome": "inactive"}
{"smiles": "CC(=O)c1ccc(N2CC2c2ccncc2)cc1", "note": "(configuration not stated)", "outcome": "inactive"}
{"smiles": "COC(=O)C1(C)COP(=O)(NCc2ccccc2)OC1", "note": "(configuration not stated)", "outcome": "inactive"}
{"smiles": "O=C(OC1CN2CCC1CC2)c1ccc([N+](=O)[O-])cc1", "note": "(configuration not stated)", "outcome": "inactive"}
{"smiles": "Cc1ccccc1CN(C)C(=O)COC(=O)C(O)(c1ccccc1)c1ccccc1", "outcome": "inactive"}
{"smiles": "O=C(OCCN1CCN(CCOCc2ccccc2)CC1)C(O)(c1ccccc1)c1ccccc1", "outcome": "inactive"}
{"smiles": "C[C@@H]1C=CCP(=O)(Oc2ccccc2)O1", "note": "(some centres not stated)", "outcome": "inactive"}
{"smiles": "C[C@H]1OP(=O)(Oc2ccccc2)C[C@@H]2O[C@@H]21", "note": "(some centres not stated)", "outcome": "inactive"}
{"smiles": "O=P1(N(CCCl)CCCl)OCCC2CCCCN21", "note": "(configuration not stated)", "outcome": "inactive"}
{"smiles": "CCOC(=O)c1ccc(NP(C)(=O)Oc2ccc(F)cc2)cc1", "note": "(configuration not stated)", "outcome": "inactive"}
{"smiles": "COc1ccc(OP(C)(=O)Nc2ccc(SC(F)(F)F)cc2)cc1", "note": "(configuration not stated)", "outcome": "inactive"}
{"smiles": "CCNC(=S)/N=C(\\N)N[N+](=O)[O-]", "outcome": "inactive"}
{"smiles": "O=C(NC1CCS(=O)(=O)C1)NP(=S)(Oc1ccccc1)Oc1ccccc1", "note": "(configuration not stated)", "outcome": "inactive"}
{"smiles": "c1ccc(-c2nn[nH]n2)c(-c2nn[nH]n2)c1", "outcome": "inactive"}
{"smiles": "Cc1ccc(NP(=O)(Oc2cccc(C)c2)Oc2cccc(C)c2)nc1", "outcome": "inactive"}
{"smiles": "CP(=O)(Nc1ccccc1)Oc1ccc(F)cc1", "note": "(configuration not stated)", "outcome": "inactive"}
{"smiles": "Cc1ccccc1OP(=O)(Nc1ccccn1)Oc1ccccc1C", "outcome": "inactive"}
{"smiles": "CC(NC(=O)COC(=O)C(O)(c1ccccc1)c1ccccc1)c1ccccc1", "note": "(configuration not stated)", "outcome": "inactive"}
{"smiles": "CN(C)C(=O)Oc1noc2ccccc12", "outcome": "inactive"}
{"smiles": "O=[N+]([O-])c1cc([N+](=O)[O-])c(OC2CCCCC2O)c([N+](=O)[O-])c1", "note": "(configuration not stated)", "outcome": "inactive"}
{"smiles": "CCCCCOc1ccc(NP(C)(=O)Oc2ccc(Cl)cc2Cl)cc1", "note": "(configuration not stated)", "outcome": "inactive"}
{"smiles": "O=c1c2cc([N+](=O)[O-])ccc2[nH]c2c([N+](=O)[O-])cc([N+](=O)[O-])cc12", "outcome": "inactive"}
